Each structure is given as a SMILES string. Only a part is listed here, and it is no random draw. Some structures show a salt or complex split into parts, the way the source records it. The source made the active and inactive calls.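 The calls were made as follows: active = mean luciferase reporter signal, scaled so untreated is 0 and the glycosylation-blocking control 100, at or above a set limit in every replicate; inconclusive = mean reaches the limit but not every replicate does; inactive = mean below the limit.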

This experiment can be described thus: increase of ERlucT glycosylation luciferase signal, primary screen, N-linked glycosylation inhibitor project, D54 ERlucT cells, luminescence, set 2 (AID 588692).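 Also: luciferase carries N-glycosylation sites so blocking glycosylation raises the light; 0% = median of neutral control wells and 100% = median of 100 nM tunicamycin wells.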 Conditions: 24 h, at 12.5 µM, stronger effect = higher value, percent of 100 nM tunicamycin response.
`COc1ccccc1OP(C)(=O)Nc1ccc(C)c(C)c1` (centres undefined): the reporter increase was inactive: -0.627%.

As for `COc1ccc(OP(C)(=O)Nc2ccccc2Br)cc1` (centres undefined), the reporter increase is inactive: 0.867%.

For the compound `O=C1C(O)=C([N+](=O)[O-])C(=O)C(O)=C1[N+](=O)[O-]`, the reporter increase was inactive: -0.766%.

For the compound `Cc1cc(C)cc(OP(C)(=O)Nc2cccc(C(F)(F)F)c2)c1` (centres undefined), the reporter increase is inactive: 1.65%.

Take `CP(=O)(OCCOc1ccccc1)OCCOc1ccccc1`: the reporter increase is inactive: 1.66%.

With `CCCCCCCCCCCCCCCC1C[N+](C)(C)CCOP(C)(=O)O1` (centres undefined), the reporter increase is inactive: -18.5%.

`CP(=O)(Nc1ccc(Cl)cc1Cl)Oc1ccccc1` (centres undefined): the reporter increase is inactive: 0.122%.

As for `COc1ccc(OP(C)(=O)Nc2ccccn2)cc1` (centres undefined), the reporter increase was inactive: 1.06%.

With `CN(C)CCOC(=O)C(O)(c1ccccc1)C1CCCC1` (centres undefined), the reporter increase was inactive: -3.58%.

As to `COc1ccccc1OP(C)(=O)Nc1ccc(Br)cc1` (centres undefined), the reporter increase is inactive: 0.362%.

Turning to `CP(=O)(Nc1ccccn1)Oc1ccccc1` (centres undefined), the reporter increase was inactive: -1.4%.

With `COc1ccccc1OP(C)(=O)Nc1ccc(C)cc1C` (centres undefined), the reporter increase is inactive: 1.91%.

`CCc1ccc(OP(C)(=O)O)cc1`: the reporter increase is inactive: 3.18%.

For the compound `O=[N+]([O-])c1cc([N+](=O)[O-])c(Nc2ccccn2)c([N+](=O)[O-])c1`, the reporter increase was inactive: 1.83%.

Consider `Cc1c(NP(C)(=O)Oc2ccc(C(C)C)cc2)c(=O)n(-c2ccccc2)n1C` (centres undefined), for which the reporter increase is inactive: -1.01%.

With `COc1ccccc1OP(C)(=O)Nc1c(C)n(C)n(-c2ccccc2)c1=O` (centres undefined), the reporter increase was inactive: 2.16%.

With `O=C(OCCCN1CCCC1)C(O)(c1ccccc1)C1CCCCC1` (centres undefined), the reporter increase is inactive: -0.967%.

With `CP(=O)(Oc1ccccc1)N1CCOC1=O` (centres undefined), the reporter increase is inactive: -0.0745%.

Turning to `CCc1ccc(OP(C)(=O)Nc2cccnc2)cc1` (centres undefined), the reporter increase was inactive: 1.36%.

With `CCN(CC)CC(O)COC(=O)C(O)(c1ccccc1)C1CCCCC1` (centres undefined), the reporter increase is inactive: -0.348%.

As to `COc1ccc(OP(C)(=O)Nc2ccc(Br)cc2)cc1` (centres undefined), the reporter increase is inactive: 0.334%.

Take `CN(C)C(=O)c1c([N+](=O)[O-])cc([N+](=O)[O-])cc1[N+](=O)[O-]`: the reporter increase was inactive: 3.17%.

Consider `CC(C)(C)c1ccc(OP(C)(=O)O)cc1`, for which the reporter increase is inactive: 0.619%.

Regarding `COc1ccccc1OP(C)(=O)Nc1ccccc1Br` (centres undefined), the reporter increase was inactive: 2.17%.

Turning to `CP(=O)(Nc1ccc(Cl)cc1)Oc1ccc(F)cc1` (centres undefined), the reporter increase was inactive: 0.792%.

Regarding `CCOC(=O)c1ccc(NP(C)(=O)Oc2ccc(Cl)cc2)cc1` (centres undefined), the reporter increase is inactive: 7.72%.

`CP(=O)(OC12CC3CC(CC(C3)C1)C2)OC12CC3CC(CC(C3)C1)C2`: the reporter increase was inactive: -0.965%.

As to `CN(C)CCOC(=O)C(O)(c1ccccc1)C1CCCCC1` (centres undefined), the reporter increase is inactive: -1.75%.

Consider `COc1ccc(NP(C)(=O)Oc2ccccc2OC)cc1` (centres undefined), for which the reporter increase was inactive: 3.5%.

As for `COc1ccc(OP(C)(=O)Nc2cccc(Br)c2)cc1` (centres undefined), the reporter increase is inactive: 0.446%.

Consider `Cc1c(C(c2ccc3c(c2)OCO3)c2c(C)n(C)n(-c3ccccc3)c2=O)c(=O)n(-c2ccccc2)n1C.O=[N+]([O-])c1cc([N+](=O)[O-])c(O)c([N+](=O)[O-])c1`, for which the reporter increase is inactive: 0.255%.

`O=[N+]([O-])c1ccc(OP2(=O)COCCO2)cc1` (centres undefined): the reporter increase was inactive: 1.6%.

In the case of `Cc1cc(-c2cccc3ccccc23)c(C)cn1.O=[N+]([O-])c1cc([N+](=O)[O-])c(O)c([N+](=O)[O-])c1`, the reporter increase is inactive: 6.71%.

In the case of `O=[N+]([O-])c1cc([N+](=O)[O-])c(NCC2CCS(=O)(=O)C2)c([N+](=O)[O-])c1` (centres undefined), the reporter increase is inactive: -0.95%.

Turning to `CCOP(C)(=S)SCC(=O)NC(C)(CC)C(=O)O` (centres undefined), the reporter increase was inactive: 3.02%.

Consider `CP(=O)(Nc1ccc(SC(F)(F)F)cc1)Oc1ccc(F)cc1` (centres undefined), for which the reporter increase is inactive: -2.56%.

In the case of `Cc1ccccc1NP(C)(=O)Nc1ccccc1C`, the reporter increase is inactive: 0.65%.

Consider `CP(=O)(Nc1ccc2c(c1)OCCO2)Oc1ccccc1` (centres undefined), for which the reporter increase is inactive: -0.386%.

With `CP(=O)(Nc1ccccc1F)Oc1ccccc1` (centres undefined), the reporter increase was inactive: 1.52%.

Turning to `CC(C)c1ccc(OP(C)(=O)Nc2ccc(SC(F)(F)F)cc2)cc1` (centres undefined), the reporter increase is inactive: 3.4%.

Turning to `O=[N+]([O-])c1cc([N+](=O)[O-])c(Nc2ccc(Cl)cc2)c([N+](=O)[O-])c1`, the reporter increase is inactive: 0.965%.

On to `COc1ccc2c(c1O)-c1c(O)c(OC)cc3c1[C@H](C2)[N+](C)(C)CC3.O=[N+]([O-])c1cc([N+](=O)[O-])c([O-])c([N+](=O)[O-])c1[O-]`, for which the reporter increase is inactive: 5.03%.

For the compound `O=C(OC1CN2CCC1CC2)c1ccc([N+](=O)[O-])cc1` (centres undefined), the reporter increase was inactive: -2.78%.

`O=C(OCCN1CCN(CCOCc2ccccc2)CC1)C(O)(c1ccccc1)c1ccccc1`: the reporter increase is inactive: -2.86%.

Take `CCOC(=O)c1ccc(NP(C)(=O)Oc2ccc(F)cc2)cc1` (centres undefined): the reporter increase is inactive: 2.98%.

Regarding `COc1ccc(OP(C)(=O)Nc2ccc(SC(F)(F)F)cc2)cc1` (centres undefined), the reporter increase was inactive: -0.979%.

As for `CP(=O)(Nc1ccccc1)Oc1ccc(F)cc1` (centres undefined), the reporter increase was inactive: 1.17%.

In the case of `CCCCCOc1ccc(NP(C)(=O)Oc2ccc(Cl)cc2Cl)cc1` (centres undefined), the reporter increase was inactive: -1.58%.

As for `O=[N+]([O-])c1cc([N+](=O)[O-])c(OC2CCCCC2O)c([N+](=O)[O-])c1` (centres undefined), the reporter increase is inactive: 4.75%.

As to `Cc1c([N+](=O)[O-])cc([N+](=O)[O-])c(Br)c1[N+](=O)[O-]`, the reporter increase was inactive: 0.624%.

Consider `O=C(O)c1cccc(Nc2c([N+](=O)[O-])cc([N+](=O)[O-])cc2[N+](=O)[O-])c1`, for which the reporter increase was inactive: 1.46%.

Regarding `CC1=NCCc2c1[nH]c1ccccc21.O=[N+]([O-])c1cc([N+](=O)[O-])c(O)c([N+](=O)[O-])c1`, the reporter increase is inactive: -2.66%.

As to `CCOC(=O)c1ccc(NP(C)(=O)Oc2cc(C)cc(C)c2)cc1` (centres undefined), the reporter increase was inactive: -0.585%.

Take `Cc1cc(C)cc(OP(C)(=O)Nc2ccc(C)cc2C)c1` (centres undefined): the reporter increase was inactive: 0.65%.

Take `COc1ccccc1OP(C)(=O)Nc1cccc(Br)c1` (centres undefined): the reporter increase is inactive: 1.23%.

For `Cc1ccc(C)c(NP(C)(=O)Oc2ccccc2)c1` (centres undefined), the reporter increase was inactive: 0.017%.

Take `CP(=O)(Nc1cccc(Br)c1)Oc1ccccc1` (centres undefined): the reporter increase was inactive: -0.919%.

For `Cc1cc(C)cc(OP(C)(=O)Nc2ccccn2)c1` (centres undefined), the reporter increase was inactive: -0.101%.

As to `CN(Cc1cccnc1)C(=O)COc1ccc(Cl)c(Cl)c1.O=[N+]([O-])c1cc([N+](=O)[O-])c(O)c([N+](=O)[O-])c1`, the reporter increase was inactive: -1.18%.

As to `O=[N+]([O-])c1cc([N+](=O)[O-])c(-n2nnc3ccccc32)c([N+](=O)[O-])c1`, the reporter increase was inactive: 1.64%.

Regarding `Cc1nc2ccc3ccccc3c2s1.O=[N+]([O-])c1cc([N+](=O)[O-])c(O)c([N+](=O)[O-])c1`, the reporter increase was inactive: 1.98%.

For the compound `O=[N+]([O-])c1cc([N+](=O)[O-])c(-c2cnn(-c3ccccc3)c2)c([N+](=O)[O-])c1`, the reporter increase was inactive: -0.269%.

As to `O=[N+]([O-])c1cc([N+](=O)[O-])c(Nc2nnnn2CCO)c([N+](=O)[O-])c1`, the reporter increase is inactive: 4.1%.

On to `CC1=C2N=C(C=C3N=C(C(C)=C4[N-][C@@](C)([C@@H]5N=C1[C@](C)(CCC(=O)NC[C@@H](C)OP(=O)([O-])O[C@H]1[C@@H](O)[C@@H](n6cnc7cc(C)c(C)cc76)O[C@@H]1CO)[C@H]5CC(N)=O)[C@@](C)(CC(N)=O)[C@@H]4CCC(N)=O)[C@@](C)(CC(N)=O)[C@@H]3CCC(N)=O)C(C)(C)[C@@H]2CCC(N)=O.[C-]#N.[Co+3]`, for which the reporter increase is inactive: -8.32%.

On to `CCOC(=O)C(CC)C1=NC(C)(C)Cc2ccccc21.O=[N+]([O-])c1cc([N+](=O)[O-])c(O)c([N+](=O)[O-])c1` (centres undefined), for which the reporter increase was inactive: 1.5%.

As for `CP(=O)(Nc1ccc(SC(F)(F)F)cc1)Oc1ccccc1` (centres undefined), the reporter increase is inactive: -1.38%.

As to `CCCOc1ccc(NP(C)(=O)Oc2ccc(Cl)cc2)cc1` (centres undefined), the reporter increase is inactive: 1.7%.

As for `CN1CCCCC1COC(=O)C1(O)c2ccccc2CCc2ccccc21` (centres undefined), the reporter increase is inactive: 5.17%.

In the case of `COc1ccccc1OP(C)(=O)Nc1c(C)cccc1C` (centres undefined), the reporter increase is inactive: 0.431%.

Take `CP(=O)(Nc1ccccc1Br)Oc1ccccc1` (centres undefined): the reporter increase is inactive: 2.14%.

For the compound `COc1ccccc1OP(C)(=O)Nc1ccccc1` (centres undefined), the reporter increase was inactive: 1.74%.

Regarding `CP(=S)(Nn1cnnc1)Oc1ccccc1` (centres undefined), the reporter increase is inactive: 2.85%.

As to `CCc1ccc(OP(C)(=O)N2CCN(c3ccc([N+](=O)[O-])cc3)CC2)cc1` (centres undefined), the reporter increase was inactive: 3.08%.

Take `CP(=O)(NC(=O)Nc1ccccc1)Oc1ccccc1` (centres undefined): the reporter increase was inactive: 0.584%.

For the compound `Cc1cc(C)cc(OP(C)(=O)Nc2ccc(SC(F)(F)F)cc2)c1` (centres undefined), the reporter increase is inactive: -1.11%.

As to `CP(=O)(Nc1ccc(SC(F)(F)F)cc1)Oc1ccc(Cl)cc1` (centres undefined), the reporter increase was inactive: 0.291%.

Regarding `Cc1ccc(Nc2c([N+](=O)[O-])cc([N+](=O)[O-])cc2[N+](=O)[O-])cc1`, the reporter increase was inactive: 0.675%.

Consider `Cc1cccc(C)c1OP(C)(=O)Nc1ccc(SC(F)(F)F)cc1` (centres undefined), for which the reporter increase is inactive: 1.69%.

With `CP(=O)(Oc1ccccc1)OC(c1ccccc1)C(F)(F)F` (centres undefined), the reporter increase is inactive: 1.74%.

Consider `CP(=O)(Nc1ccccn1)Oc1ccc(Cl)cc1` (centres undefined), for which the reporter increase was inactive: 2.19%.

Turning to `O=[N+]([O-])c1cc([N+](=O)[O-])c(O)c([N+](=O)[O-])c1.c1ccc(Oc2ccncc2)cc1`, the reporter increase is inactive: -0.605%.

Regarding `CCOC(=O)c1ccc(NP(C)(=O)Oc2ccc(OC)cc2)cc1` (centres undefined), the reporter increase is inactive: -1.19%.

With `CCOP(C)(=S)SCC(=O)NC(C)C(=O)O` (centres undefined), the reporter increase is inactive: 1.24%.

As to `CCN(CC)CCCOC(=O)C(O)(c1ccccc1)c1ccccc1`, the reporter increase is inactive: -2.27%.

`O=[N+]([O-])c1ccc2c(c1)C=Nc1ccccc1O2`: the reporter increase was inactive: 2.71%.

In the case of `CC(C)(C)c1ccc(OP(C)(=O)Nc2ccc(SC(F)(F)F)cc2)cc1` (centres undefined), the reporter increase is inactive: -1.38%.

`Cc1cccc(C)c1OP(C)(N)=O` (centres undefined): the reporter increase was inactive: 4.15%.

With `O=[N+]([O-])c1cc([N+](=O)[O-])c(Nc2cccnc2)c([N+](=O)[O-])c1`, the reporter increase was inactive: 4.37%.

Consider `Cc1cc(C)cc(OP(C)(N)=O)c1` (centres undefined), for which the reporter increase was inactive: 2.19%.

As to `COc1ccccc1OP(C)(=O)Nc1cc(Cl)ccc1C` (centres undefined), the reporter increase is inactive: 0.865%.

Regarding `COc1ccc(OP(C)(=O)Nc2cccc(F)c2)cc1` (centres undefined), the reporter increase is inactive: 2.69%.

As for `COc1ccccc1OP(C)(=O)Nc1ccc(C)cc1` (centres undefined), the reporter increase was inactive: 2.58%.

Take `Cc1ccc(NP(C)(=O)Oc2ccccc2)c(C)c1` (centres undefined): the reporter increase was inactive: 2.3%.

For `CCOC(=O)c1ccc(NP(C)(=O)Oc2ccccc2)cc1` (centres undefined), the reporter increase is inactive: -0.688%.

Values taken from PubChem BioAssay AID588692 (Broad Institute, 2011).
